# Source: patent publication US20240082398A1, “METHODS OF PREPARING AND EXPANDING TYPE I INNATE LYMPHOID CELLS AND THERAPEUTIC USES THEREOF” (City of Hope, priority 2021, published 2024)
# What was measured:
# [1] = test system: LSCs isolated from spleen of Mll^PTD/WT: Flt3^ITD/ITD mice with AML; assay: In vitro kinase inhibitor experiments (LSC pretreatment, then ILC1 co-culture); type: cell-based, mouse; details: for number of LSCs in the presence of inhibitor: co-culture with WT ILC1s, vs corresponding control; for Lin^−Sca-1^−c-Kit^− cell population: inhibitor combined with ILC1s vs ILC1s alone
# [2] = test system: LSCs from Mll^PTD/WT: Flt3^ITD/ITD mice with AML; assay: LSC differentiation into terminal myeloid blasts (Mac-1^+, Gr-1^+, Wright-Giemsa); type: cell-based, mouse; details: vs LSCs alone / untreated; co-culture 1-4 days; IFN-γ 0.1, 1, 10 ng/ml
Molecule,number of LSCs in the presence of inhibitor [1],Lin^−Sca-1^−c-Kit^− cell population [1],LSC differentiation into terminal myeloid blasts (cells expressing Mac-1 and Gr-1) [2]
"CC[C@@](C)(Nc1ccnc(-c2c[nH]c3ncccc23)n1)C(=O)NCC(F)(F)F [VX-509, decernotinib]",decreased,no significant alteration,–
recombinant murine IFN-γ: animal-free recombinant murine IFN-γ cytokine,–,–,suppressed the differentiation of LSCs into cells expressing Mac-1 and Gr-1
Cc1cc(Nc2nc(N[C@@H](C)c3ncc(F)cn3)ncc2Cl)n[nH]1 [AZD1480],decreased,no significant alteration,–
